The values that follow come from patent US7348402B2, “Antimicrobial peptide, its analogs and antimicrobial composition comprising them” (priority 2002, dated 2008).

SMILES strings stand for the structures.

This data set relates to human red blood cells (hRBC). The data set is described as follows: Hemolytic activity on human red blood cells. In kind it is cell-based. The settings on record: peptide 200 μg/ml, 1 h at 37° C.; 0.2% Triton X-100 set to 100% hemolysis. The method, then:
After separating the precipitated human red blood cells (hRBC) from 3 ml of human blood, they were washed with PBS (phosphate buffered saline) and diluted to make the total volume of 20 ml. In 190 μl of the prepared hRBC solution, 10 μl of each peptide sample (4 μg/μl ) prepared in Example 1 was added to make the final concentration of 200 μg/ml, reacted for 1 h at 37° C. and centrifuged for 5 min at 4000 rpm. […] The absorbance of the sample treated with 0.2% Triton X-100 was set to represent 100% hemolysis and the percent (%) hemolysis of each sample was relatively calculated from each measured absorbance, as shown in Table 3.

With `CC[C@H](C)[C@H](NC(=O)CN)C(=O)NCC(=O)N[C@@H](C)C(=O)N[C@H](C(=O)N[C@@H](CC(C)C)C(=O)N[C@@H](CCCCN)C(=O)N[C@H](C(=O)N[C@@H](CC(C)C)C(=O)N[C@H](C(=O)N[C@H](C(=O)NCC(=O)N[C@@H](CC(C)C)C(=O)N1CCC[C@H]1C(=O)N[C@@H](C)C(=O)N[C@@H](CC(C)C)C(=O)N[C@H](C(=O)N[C@@H](CO)C(=O)N[C@@H](Cc1c[nH]c2ccccc12)C(=O)N[C@H](C(=O)N[C@@H](CCCCN)C(=O)N[C@@H](CCCNC(=N)N)C(=O)N[C@@H](CCCCN)C(=O)N[C@@H](CCCNC(=N)N)C(=O)N[C@@H](CCC(N)=O)C(=O)N[C@@H](CCC(N)=O)C(N)=O)[C@@H](C)CC)[C@@H](C)CC)[C@@H](C)O)[C@@H](C)O)C(C)C)C(C)C` [Melittin, melittin], the “% hemolysis” value amounted to 99%.
